From IntAct's records for PubMed 35512704

B1: RAC-alpha serine/threonine-protein kinase (Homo sapiens), P31749 (parent)
chain: MSDVAIVKEGWLHKRGEYIKTWRPRYFLLKNDGTFIGYKERPQDVDQREAPLNNFSVAQCQLMKTERPRPNTFIIRCLQWTTVIERTFHVETPEEREEWTTAIQTVADGLKKQEEEEMDFRSGSPSDNSGAEEMEVSLAKPKHRVTMNEFEYLKLLGKGTFGKVILVKEKATGRYYAMKILKKEVIVAKDEVAHTLTENRVLQNSRHPFLTALKYSFQTHDRLCFVMEYANGGELFFHLSRERVFSEDRARFYGAEIVSALDYLHSEKNVVYRDLKLENLMLDKDGHIKITDFGLCKEGIKDGATMKTFCGTPEYLAPEVLEDNDYGRAVDWWGLGVVMYEMMCGRLPFYNQDHEKLFELILMEEIRFPRTLGPEAKSLLSGLLKKDPKQRLGGGSEDAKEIMQHRFFAGIVWQHVYEKKLSPPFKPQVTSETDTRYFDEEFTAQMITITPPDQDDSMECVDSERRPHFPQFSYSASGTA
partner: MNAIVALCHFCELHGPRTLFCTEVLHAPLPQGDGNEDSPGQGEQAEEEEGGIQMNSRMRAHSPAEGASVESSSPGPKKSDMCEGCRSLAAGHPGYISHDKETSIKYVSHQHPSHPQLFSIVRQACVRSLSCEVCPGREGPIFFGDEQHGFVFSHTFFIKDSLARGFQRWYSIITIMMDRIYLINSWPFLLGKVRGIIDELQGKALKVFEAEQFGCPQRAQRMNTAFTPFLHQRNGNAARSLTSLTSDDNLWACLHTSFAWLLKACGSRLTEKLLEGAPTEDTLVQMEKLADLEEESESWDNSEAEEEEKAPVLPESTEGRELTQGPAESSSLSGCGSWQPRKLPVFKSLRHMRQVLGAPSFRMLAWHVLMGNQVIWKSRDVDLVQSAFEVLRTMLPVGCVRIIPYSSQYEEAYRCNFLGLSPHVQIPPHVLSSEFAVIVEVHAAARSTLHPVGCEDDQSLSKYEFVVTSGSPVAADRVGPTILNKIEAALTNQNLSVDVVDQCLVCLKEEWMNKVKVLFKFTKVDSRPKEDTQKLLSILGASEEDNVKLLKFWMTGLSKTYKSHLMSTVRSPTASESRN
B2: RAC-alpha serine/threonine-protein kinase (Homo sapiens), P31749 (parent)
chain: B1 chain
partner: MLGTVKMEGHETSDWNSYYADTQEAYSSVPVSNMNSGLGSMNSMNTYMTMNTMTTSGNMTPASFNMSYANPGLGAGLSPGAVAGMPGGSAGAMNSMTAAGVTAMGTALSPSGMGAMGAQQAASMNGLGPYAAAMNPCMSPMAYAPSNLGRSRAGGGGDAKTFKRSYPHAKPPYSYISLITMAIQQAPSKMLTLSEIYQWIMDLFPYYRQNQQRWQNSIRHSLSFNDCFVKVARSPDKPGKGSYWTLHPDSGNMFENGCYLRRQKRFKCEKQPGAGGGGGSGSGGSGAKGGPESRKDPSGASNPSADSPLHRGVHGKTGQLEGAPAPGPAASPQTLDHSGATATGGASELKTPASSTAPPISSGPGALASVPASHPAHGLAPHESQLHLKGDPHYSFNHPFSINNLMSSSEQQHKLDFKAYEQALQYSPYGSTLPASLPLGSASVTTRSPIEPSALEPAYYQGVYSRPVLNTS
B3: RAC-alpha serine/threonine-protein kinase (Homo sapiens), P31749 (parent)
chain: B1 chain
partner: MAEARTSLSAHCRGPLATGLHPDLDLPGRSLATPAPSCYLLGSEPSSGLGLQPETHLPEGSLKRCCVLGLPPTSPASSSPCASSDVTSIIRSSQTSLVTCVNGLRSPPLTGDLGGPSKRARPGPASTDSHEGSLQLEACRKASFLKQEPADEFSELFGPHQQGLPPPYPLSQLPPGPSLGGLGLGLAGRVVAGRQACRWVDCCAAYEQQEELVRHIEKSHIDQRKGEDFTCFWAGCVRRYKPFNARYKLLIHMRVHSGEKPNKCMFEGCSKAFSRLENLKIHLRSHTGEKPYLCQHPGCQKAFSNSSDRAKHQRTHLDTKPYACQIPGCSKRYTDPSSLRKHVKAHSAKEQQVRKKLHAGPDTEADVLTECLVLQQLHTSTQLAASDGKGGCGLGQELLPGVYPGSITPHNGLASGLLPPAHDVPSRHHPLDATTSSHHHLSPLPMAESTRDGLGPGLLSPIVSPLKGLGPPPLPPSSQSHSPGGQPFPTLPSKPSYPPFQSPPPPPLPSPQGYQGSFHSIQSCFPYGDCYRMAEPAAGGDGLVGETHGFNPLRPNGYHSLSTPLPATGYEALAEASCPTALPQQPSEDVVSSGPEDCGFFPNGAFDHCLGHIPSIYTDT
B4: RAC-alpha serine/threonine-protein kinase (Homo sapiens), P31749 (parent)
chain: B1 chain
partner: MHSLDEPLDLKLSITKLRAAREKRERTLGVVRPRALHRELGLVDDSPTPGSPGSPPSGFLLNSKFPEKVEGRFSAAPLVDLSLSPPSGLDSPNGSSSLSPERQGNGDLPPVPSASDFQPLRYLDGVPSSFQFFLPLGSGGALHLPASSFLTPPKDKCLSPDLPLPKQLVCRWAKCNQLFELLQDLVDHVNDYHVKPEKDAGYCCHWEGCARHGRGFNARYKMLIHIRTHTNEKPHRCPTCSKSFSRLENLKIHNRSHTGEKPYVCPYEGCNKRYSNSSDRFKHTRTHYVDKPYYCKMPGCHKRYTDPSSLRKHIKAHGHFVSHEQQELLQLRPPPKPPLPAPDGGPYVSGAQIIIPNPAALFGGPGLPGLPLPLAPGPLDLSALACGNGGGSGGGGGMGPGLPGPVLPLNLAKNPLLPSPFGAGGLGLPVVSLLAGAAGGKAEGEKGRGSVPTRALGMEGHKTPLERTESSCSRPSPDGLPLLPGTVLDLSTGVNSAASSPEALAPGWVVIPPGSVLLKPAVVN
B5: RAC-alpha serine/threonine-protein kinase (Homo sapiens), P31749 (parent)
chain: B1 chain
partner: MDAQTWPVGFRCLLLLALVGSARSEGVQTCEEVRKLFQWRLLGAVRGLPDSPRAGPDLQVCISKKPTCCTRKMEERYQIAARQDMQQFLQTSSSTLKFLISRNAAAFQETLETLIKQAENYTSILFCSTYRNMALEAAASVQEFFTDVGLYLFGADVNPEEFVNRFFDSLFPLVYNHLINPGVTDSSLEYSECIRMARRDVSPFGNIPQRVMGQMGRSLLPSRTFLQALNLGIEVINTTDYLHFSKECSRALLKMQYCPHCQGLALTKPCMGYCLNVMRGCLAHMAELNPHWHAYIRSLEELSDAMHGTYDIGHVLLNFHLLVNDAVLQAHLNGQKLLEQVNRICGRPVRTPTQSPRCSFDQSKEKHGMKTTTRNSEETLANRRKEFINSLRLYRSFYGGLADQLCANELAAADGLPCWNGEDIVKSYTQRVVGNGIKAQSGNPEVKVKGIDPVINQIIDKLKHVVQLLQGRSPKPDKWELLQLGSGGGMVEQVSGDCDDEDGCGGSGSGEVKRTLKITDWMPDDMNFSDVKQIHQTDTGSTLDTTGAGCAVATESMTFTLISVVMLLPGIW
B6: RAC-alpha serine/threonine-protein kinase (Homo sapiens), P31749 (parent)
chain: B1 chain
partner: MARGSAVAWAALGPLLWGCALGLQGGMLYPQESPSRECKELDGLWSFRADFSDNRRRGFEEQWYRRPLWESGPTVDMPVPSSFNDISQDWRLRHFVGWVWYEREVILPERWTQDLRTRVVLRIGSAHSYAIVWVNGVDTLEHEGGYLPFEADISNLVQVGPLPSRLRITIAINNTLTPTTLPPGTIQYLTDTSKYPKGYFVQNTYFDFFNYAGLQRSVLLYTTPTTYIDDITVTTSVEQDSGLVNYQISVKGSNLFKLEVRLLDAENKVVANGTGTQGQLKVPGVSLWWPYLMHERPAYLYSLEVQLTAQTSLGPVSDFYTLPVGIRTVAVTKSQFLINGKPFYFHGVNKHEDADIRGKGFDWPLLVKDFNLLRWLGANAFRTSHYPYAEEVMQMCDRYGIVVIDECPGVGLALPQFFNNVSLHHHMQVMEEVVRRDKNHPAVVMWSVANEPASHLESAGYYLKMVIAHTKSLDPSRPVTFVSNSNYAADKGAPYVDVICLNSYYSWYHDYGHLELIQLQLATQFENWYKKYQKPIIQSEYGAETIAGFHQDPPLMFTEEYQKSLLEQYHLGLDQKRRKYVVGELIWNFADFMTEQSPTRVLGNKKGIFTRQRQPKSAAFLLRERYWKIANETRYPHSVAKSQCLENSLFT
B7: RAC-alpha serine/threonine-protein kinase (Homo sapiens), P31749 (parent)
chain: B1 chain
partner: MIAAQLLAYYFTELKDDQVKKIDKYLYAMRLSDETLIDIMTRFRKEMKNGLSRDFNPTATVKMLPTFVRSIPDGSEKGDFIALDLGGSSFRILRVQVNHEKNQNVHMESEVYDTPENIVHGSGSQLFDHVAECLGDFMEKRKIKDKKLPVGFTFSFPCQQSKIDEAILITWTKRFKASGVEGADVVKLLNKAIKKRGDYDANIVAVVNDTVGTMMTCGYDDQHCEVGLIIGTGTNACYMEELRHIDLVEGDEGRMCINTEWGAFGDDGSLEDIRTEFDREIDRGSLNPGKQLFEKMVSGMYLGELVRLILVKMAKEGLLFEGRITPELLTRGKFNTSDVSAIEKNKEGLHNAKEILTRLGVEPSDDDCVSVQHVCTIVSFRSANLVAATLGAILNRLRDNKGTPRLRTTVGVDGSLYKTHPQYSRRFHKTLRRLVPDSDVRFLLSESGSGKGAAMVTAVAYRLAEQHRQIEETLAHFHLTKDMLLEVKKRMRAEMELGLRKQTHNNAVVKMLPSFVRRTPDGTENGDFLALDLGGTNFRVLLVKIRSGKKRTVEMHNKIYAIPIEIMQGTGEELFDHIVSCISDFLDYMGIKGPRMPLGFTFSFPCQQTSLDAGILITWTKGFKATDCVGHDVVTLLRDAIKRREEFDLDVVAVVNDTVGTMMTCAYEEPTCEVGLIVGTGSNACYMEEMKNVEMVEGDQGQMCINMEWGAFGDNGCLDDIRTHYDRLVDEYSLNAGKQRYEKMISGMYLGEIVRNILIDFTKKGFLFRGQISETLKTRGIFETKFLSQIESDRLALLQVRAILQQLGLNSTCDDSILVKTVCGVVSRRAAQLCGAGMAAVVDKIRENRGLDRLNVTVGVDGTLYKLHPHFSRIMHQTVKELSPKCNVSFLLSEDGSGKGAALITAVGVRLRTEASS
B8: RAC-alpha serine/threonine-protein kinase (Homo sapiens), P31749 (parent)
chain: B1 chain
partner: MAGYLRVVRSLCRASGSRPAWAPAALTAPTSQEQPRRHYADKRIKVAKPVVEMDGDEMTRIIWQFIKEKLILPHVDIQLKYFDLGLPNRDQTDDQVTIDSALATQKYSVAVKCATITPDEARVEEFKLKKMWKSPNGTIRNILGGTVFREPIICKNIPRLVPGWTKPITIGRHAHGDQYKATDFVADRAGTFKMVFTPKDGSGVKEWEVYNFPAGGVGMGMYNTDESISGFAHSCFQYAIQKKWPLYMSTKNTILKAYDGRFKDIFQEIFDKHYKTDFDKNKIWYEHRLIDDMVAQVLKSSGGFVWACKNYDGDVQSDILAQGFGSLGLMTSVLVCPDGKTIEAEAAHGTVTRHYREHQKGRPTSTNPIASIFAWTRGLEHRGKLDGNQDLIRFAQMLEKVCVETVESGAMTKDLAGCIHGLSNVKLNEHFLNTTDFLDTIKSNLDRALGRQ
B9: RAC-alpha serine/threonine-protein kinase (Homo sapiens), P31749 (parent)
chain: B1 chain
partner: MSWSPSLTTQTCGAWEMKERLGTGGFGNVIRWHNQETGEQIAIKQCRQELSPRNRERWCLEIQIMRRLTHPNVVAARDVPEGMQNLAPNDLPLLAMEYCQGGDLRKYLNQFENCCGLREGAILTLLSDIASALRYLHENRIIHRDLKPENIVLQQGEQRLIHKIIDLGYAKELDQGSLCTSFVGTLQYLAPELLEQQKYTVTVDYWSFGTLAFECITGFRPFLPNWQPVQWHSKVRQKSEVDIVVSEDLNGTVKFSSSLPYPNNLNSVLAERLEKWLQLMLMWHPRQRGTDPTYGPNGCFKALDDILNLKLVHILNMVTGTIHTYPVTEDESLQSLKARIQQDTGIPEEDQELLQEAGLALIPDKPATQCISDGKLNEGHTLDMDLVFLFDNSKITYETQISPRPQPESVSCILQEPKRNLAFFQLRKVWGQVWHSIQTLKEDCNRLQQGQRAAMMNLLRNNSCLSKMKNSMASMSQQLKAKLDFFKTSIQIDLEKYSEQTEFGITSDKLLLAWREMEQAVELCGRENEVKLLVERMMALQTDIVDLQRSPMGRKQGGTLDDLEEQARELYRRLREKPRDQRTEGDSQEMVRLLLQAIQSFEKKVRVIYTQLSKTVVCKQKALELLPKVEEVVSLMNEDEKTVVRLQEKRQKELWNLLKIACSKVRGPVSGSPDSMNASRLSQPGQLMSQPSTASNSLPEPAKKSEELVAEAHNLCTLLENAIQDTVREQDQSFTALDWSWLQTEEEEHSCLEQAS

Variants of: B1
Details: with flcn_human FLCN

Row | Variant | effect of a mutation on the interaction
1 | E17K | with no effect

Variants of: B2
Details: with foxa1_human FOXA1, P55317

Row | Variant | effect of a mutation on the interaction
2 | E17K | with no effect

Variants of: B3
Details: with glis1_human GLIS1, Q8NBF1

Row | Variant | effect of a mutation on the interaction
3 | E17K | with no effect

Variants of: B4
Details: with glis2_human GLIS2, Q9BZE0

Row | Variant | effect of a mutation on the interaction
4 | E17K | with no effect

Variants of: B5
Details: with gpc5_human GPC5, P78333

Row | Variant | effect of a mutation on the interaction
5 | E17K | with no effect

Variants of: B6
Details: with bglr_human GUSB

Row | Variant | effect of a mutation on the interaction
6 | E17K | with no effect

Variants of: B7
Details: with hxk1_human HK1, P19367

Row | Variant | effect of a mutation on the interaction
7 | E17K | with no effect

Variants of: B8
Details: with idhp_human IDH2, P48735

Row | Variant | effect of a mutation on the interaction
8 | E17K | with no effect

Variants of: B9
Details: with ikkb_human IKBKB

Row | Variant | effect of a mutation on the interaction
9 | E17K | with no effect
